The values that follow come from PubChem BioAssay AID504894 (National Center for Advancing Translational Sciences (NCATS), 2011).

Only a part is listed here, and it is no random draw. Activity calls are given as the source filed them. The call rests on the fitted dose curve; in most records, active means well fitted activation curve with a large enough effect; inconclusive means small, poorly fitted or top-dose-only effect, or another doubt; inactive means no such curve, though single readings can be large or run the other way.

The test is described as follows: Activators of T cell receptors: qHTS campaign. Further: % of control where 0% means no effect. To be noted: primary human leukocytes, anti-CD3, IL-2 HTRF, 48 h; at 9.22 µM (top of the series) unless noted. An excerpt: Normally activation of naive T cells requires two signals. 1. A signal through the T cell receptor (TCR) which provides antigen specificity to the response. 2. Signals through co-stimulatory molecules, which are necessary for proliferation, survival and cytokine production. In the absence of co-stimulatory signals T cells are not effectively activated, and may even be rendered anergic or unresponsive to subsequent signaling. This lack of costimulation has been shown in multiple model systems to be a major factor in the limited strength and effectiveness of anti-tumor T cell responses. The goal of this project is to identify small molecule compounds that will stimulate T cell activation in the presence of TCR signaling but in the absence of co-stimulatory signals, thereby allowing activation of naive T cells in the absence of co-stimulation. Identification of such compounds would have clear experimental and clinical applications in instances where desirable antigen-specific immune responses are not generated due to a lack of co-stimulation, for example in the generation of anti-tumor responses. In collaboration between the National Cancer Institute and NIH Chemical Genomics Center, a high-throughput amenable screen was developed to discover small molecules that co-stimulate and activate human T cell receptors. The screen will be carried out using a novel homogeneous time resolved fluorescence energy transfer (HTRF) assay to measure production of the cytokine IL-2 by activated T cells and will be tested against the NIH Molecular Libraries Small Molecule Repository (MLSMR). NIH Chemical Genomics Center [NCGC] NIH Molecular Libraries Probe Centers Network [MLPCN] MLPCN Grant: MH090820-01 Assay Submitter (PI): Richard Hodes, National Cancer Institute, NIH
Primary human leukocytes are incubated with a-CD3 beads and compounds for 48 hr. The amount of secreted IL-2 is then assayed with a HTRF IL-2 kit. The presence of IL-2 cytokine captures the detection reagents and brings the a-IL-2-K and a-IL-2-d2 into close proximity. Upon excitation with 320nm light, the europium cryptate is capable of transferring energy to acceptor molecules within close proximity, resulting in acceptor molecule emission at 665nm.
As for `CC1=NCCc2c1[nH]c1ccccc21.O=[N+]([O-])c1cc([N+](=O)[O-])c(O)c([N+](=O)[O-])c1`, the activation of IL-2 secretion is inactive: -1.8% [at 46.1 µM]. `Cc1cc(C)cc(OP(C)(=O)Nc2ccc(C)cc2C)c1` (stereo unspecified): the activation of IL-2 secretion was inactive: 4.04%. On to `CCOC(=O)c1ccc(NP(C)(=O)Oc2cc(C)cc(C)c2)cc1` (stereo unspecified), for which the activation of IL-2 secretion was inactive: 1.9%. The value for `COc1ccccc1OP(C)(=O)Nc1cccc(Br)c1` (stereo unspecified) was inactive: -0.0111%; that for `CP(=O)(Nc1cccc(Br)c1)Oc1ccccc1` (stereo unspecified) was inactive: 14%. With `Cc1ccc(C)c(NP(C)(=O)Oc2ccccc2)c1` (stereo unspecified), the activation of IL-2 secretion is inactive: -4.41%. The value for `Cc1nc2ccc3ccccc3c2s1.O=[N+]([O-])c1cc([N+](=O)[O-])c(O)c([N+](=O)[O-])c1` was inactive: 0.928%; that for `O=[N+]([O-])c1cc([N+](=O)[O-])c(-c2cnn(-c3ccccc3)c2)c([N+](=O)[O-])c1` was inactive: -8.93%. The value for `O=[N+]([O-])c1cc([N+](=O)[O-])c(Nc2nnnn2CCO)c([N+](=O)[O-])c1` was inactive: -2.05%; that for `CC1=C2N=C(C=C3N=C(C(C)=C4[N-][C@@](C)([C@@H]5N=C1[C@](C)(CCC(=O)NC[C@@H](C)OP(=O)([O-])O[C@H]1[C@@H](O)[C@@H](n6cnc7cc(C)c(C)cc76)O[C@@H]1CO)[C@H]5CC(N)=O)[C@@](C)(CC(N)=O)[C@@H]4CCC(N)=O)[C@@](C)(CC(N)=O)[C@@H]3CCC(N)=O)C(C)(C)[C@@H]2CCC(N)=O.[C-]#N.[Co+3]` was inactive: -6.01%; that for `CP(=O)(Nc1ccc(SC(F)(F)F)cc1)Oc1ccccc1` (stereo unspecified) was inactive: -1.46% [at 46.1 µM]. Turning to `CCCOc1ccc(NP(C)(=O)Oc2ccc(Cl)cc2)cc1` (stereo unspecified), the activation of IL-2 secretion is inactive: 4.6%. The value for `CN1CCCCC1COC(=O)C1(O)c2ccccc2CCc2ccccc21` (stereo unspecified) was inactive: -12.4% [at 46.1 µM]. Next, `COc1ccccc1OP(C)(=O)Nc1ccccc1` (stereo unspecified): inactive: -2.69%; `CP(=O)(Nc1ccccc1Br)Oc1ccccc1` (stereo unspecified): inactive: 1.17% [at 46.1 µM]. As for `CP(=S)(Nn1cnnc1)Oc1ccccc1` (stereo unspecified), the activation of IL-2 secretion is inactive: 4.26%. The value for `CCc1ccc(OP(C)(=O)N2CCN(c3ccc([N+](=O)[O-])cc3)CC2)cc1` (stereo unspecified) was inactive: -7.51%; that for `CP(=O)(NC(=O)Nc1ccccc1)Oc1ccccc1` (stereo unspecified) was inactive: -3.68%; that for `Cc1cc(C)cc(OP(C)(=O)Nc2ccc(SC(F)(F)F)cc2)c1` (stereo unspecified) was inactive: 5.98% [at 46.1 µM]. In the case of `CP(=O)(Nc1ccc(SC(F)(F)F)cc1)Oc1ccc(Cl)cc1` (stereo unspecified), the activation of IL-2 secretion is inactive: -4.42%. For the compound `Cc1cccc(C)c1OP(C)(=O)Nc1ccc(SC(F)(F)F)cc1` (stereo unspecified), the activation of IL-2 secretion is inactive: -4.61% [at 46.1 µM].
